Earlier results in patent US20210379148A1, “REGULATING MUSCLE PHYSIOLOGY AND ENERGY METABOLISM USING CRYM” (University Of Maryland, Baltimore, priority 2020, published 2021).

Test system: CRYM mRNA

CC[C@@]1(O)C(=O)OCc2c1cc1n(c2=O)Cc2cc3c(CN(C)C)c(O)ccc3nc2-1 [Topotecan]
expression of CRYM mRNA: [Oxaliplatin co-treated with Topotecan] results in increased
